From ChEMBL document CHEMBL1153635, “Identification of [4-[4-(methylsulfonyl)phenyl]-6-(trifluoromethyl)-2-pyrimidinyl] amines and ethers as potent and selective cyclooxygenase-2 inhibitors” (Bioorg Med Chem Lett, 2009) come the findings set out here.

The chains behind the UniProt entries cited, without tags or fusion partners.
UniProt P23219, whole entry: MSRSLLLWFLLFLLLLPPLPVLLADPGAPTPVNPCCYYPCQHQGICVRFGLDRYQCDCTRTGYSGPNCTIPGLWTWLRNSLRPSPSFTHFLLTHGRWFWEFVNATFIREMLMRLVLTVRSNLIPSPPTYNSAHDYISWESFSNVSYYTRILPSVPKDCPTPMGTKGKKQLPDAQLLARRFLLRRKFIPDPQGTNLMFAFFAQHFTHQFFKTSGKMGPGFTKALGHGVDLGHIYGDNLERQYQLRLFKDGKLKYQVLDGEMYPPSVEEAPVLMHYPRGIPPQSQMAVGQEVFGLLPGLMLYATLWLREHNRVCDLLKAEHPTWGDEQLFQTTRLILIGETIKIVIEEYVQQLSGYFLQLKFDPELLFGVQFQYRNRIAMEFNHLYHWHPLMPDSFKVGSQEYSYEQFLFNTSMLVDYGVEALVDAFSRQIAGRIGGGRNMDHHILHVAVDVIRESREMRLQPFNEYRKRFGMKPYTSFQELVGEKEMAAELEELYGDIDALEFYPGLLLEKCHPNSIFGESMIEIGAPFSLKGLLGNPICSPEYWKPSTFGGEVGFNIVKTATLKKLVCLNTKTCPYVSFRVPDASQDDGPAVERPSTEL

Experiment [1] has as its target Prostaglandin G/H synthase 1 (Homo sapiens, UniProt P23219). The format is tissue-based, Blood.
The nature of experiment [2]: Selectivity ratio of IC50 for human COX1 to IC50 for human COX2 expressed in baculovirus-infected SF9 cells.

In general, IC50 refers to the midpoint of a concentration-inhibition curve. The low end stands for higher potency, the high end for lower potency. In experiment [1], `CCCCOc1nc(-c2ccc(S(C)(=O)=O)cc2)cc(C(F)(F)F)n1` registered an IC50 of 17.4 µM.
`CS(=O)(=O)c1ccc(-c2cc(C(F)(F)F)nc(OCC3CCCC3)n2)cc1`: the Ratio IC50 in experiment [2] was found to be 3140.
